# Earlier results as cited in patent US20140271726A1, “COMPOSITIONS AND METHODS FOR […] SUSCEPTIBILITY TO ANTIVIRAL AGENTS” (WISCONSIN ALUMNI RESEARCH FOUNDATION, priority 2013, published 2014).
# System: HCV
# Settings: six-month course, patients with chronic hepatitis C, p=0.01
substance,measurement,value
interferon alone: alpha interferon used for HCV treatment in the cited Japanese trial,sustained virological responses,32%
